Results on three molecules are retold here after BindingDB's records for patent US10172858 (Intellikine, 2019).

In assay [1] the target is T1, Phosphatidylinositol 4,5-bisphosphate 3-kinase catalytic subunit delta isoform (Homo sapiens, UniProt O00329).
T1 sequence (O00329 whole entry): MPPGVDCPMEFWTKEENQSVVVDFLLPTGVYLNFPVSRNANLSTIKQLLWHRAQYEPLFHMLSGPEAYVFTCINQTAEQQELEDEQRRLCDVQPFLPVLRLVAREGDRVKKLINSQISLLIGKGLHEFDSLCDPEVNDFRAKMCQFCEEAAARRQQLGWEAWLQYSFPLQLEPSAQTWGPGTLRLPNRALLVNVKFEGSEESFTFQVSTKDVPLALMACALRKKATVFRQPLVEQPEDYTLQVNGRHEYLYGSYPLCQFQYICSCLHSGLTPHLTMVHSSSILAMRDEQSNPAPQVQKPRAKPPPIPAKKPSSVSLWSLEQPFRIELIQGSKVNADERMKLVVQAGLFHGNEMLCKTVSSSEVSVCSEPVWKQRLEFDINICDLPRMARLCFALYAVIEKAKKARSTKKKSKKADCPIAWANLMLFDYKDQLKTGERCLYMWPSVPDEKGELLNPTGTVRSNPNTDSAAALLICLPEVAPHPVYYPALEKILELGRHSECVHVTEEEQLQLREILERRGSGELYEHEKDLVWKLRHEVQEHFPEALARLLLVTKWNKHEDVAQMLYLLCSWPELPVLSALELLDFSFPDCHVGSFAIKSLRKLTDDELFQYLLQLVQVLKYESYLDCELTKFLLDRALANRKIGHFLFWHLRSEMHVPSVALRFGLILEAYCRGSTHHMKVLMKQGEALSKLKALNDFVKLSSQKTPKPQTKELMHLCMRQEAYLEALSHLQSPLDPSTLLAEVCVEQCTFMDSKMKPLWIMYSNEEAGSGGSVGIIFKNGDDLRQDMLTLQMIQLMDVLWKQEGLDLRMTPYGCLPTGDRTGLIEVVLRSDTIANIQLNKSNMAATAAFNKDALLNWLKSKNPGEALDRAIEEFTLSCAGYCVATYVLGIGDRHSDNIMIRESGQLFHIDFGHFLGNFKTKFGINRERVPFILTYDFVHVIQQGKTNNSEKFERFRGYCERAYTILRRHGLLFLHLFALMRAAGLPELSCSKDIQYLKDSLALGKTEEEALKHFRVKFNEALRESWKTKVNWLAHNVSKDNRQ

Assay [2] has as its target Phosphatidylinositol 4,5-bisphosphate 3-kinase catalytic subunit gamma isoform (Homo sapiens, UniProt P48736).
In assay [3] the target is Serine/threonine-protein kinase mTOR (Homo sapiens, UniProt P42345).

On to `CC(=O)Nc1nc2ccc(-c3nn(C(C)C)c4ncnc(N)c34)cc2o1` [US10172858, Table 1.3], for which the IC50 in assay [1], in assay [2] and in assay [3] was less than 10 µM throughout.
On to `Nc1nc2cc(-c3nn(C4CCC(N5CCOCC5)CC4)c4ncnc(N)c34)ccc2o1` (stereo not given) [US10172858, Table 1.6], for which the IC50 – broadly, the concentration that gives 50% inhibition – in assay [2] is less than 10 µM.
In assay [2], `CC(C)n1nc(-c2ccc3onc(NC4CC4)c3c2)c2c(N)ncnc21` [US10172858, Table 1.16] yielded an IC50 of less than 10 µM.
